Values quoted from earlier work in patent publication US11639530B2, “CD133 related to anticancer agent resistance in colon cancer and use thereof” (KOREA UNIVERSITY RESEARCH AND BUSINESS FOUNDATION, priority 2019, dated 2023).

Tested on: certain types of cancer in which EGFR downstream signaling molecules including KRAS are activated
Details: cancers with activated EGFR downstream signaling molecules including KRAS; cited from earlier work

SMILES: COc1cc2ncnc(Nc3ccc(F)c(Cl)c3)c2cc1OCCCN1CCOCC1 [gefitinib]
- gefitinib efficacy: insignificant
